Source: patent US8536121B2, “Methods and reagents for the diagnosis, prevention and treatment of insulin resistance using beta-arrestin2 and its up-regulators” (Shanghai Institutes for Biological Sciences, CAS, priority 2008, dated 2013)

Biological target: T1, IR (Homo sapiens, UniProt P06213)
T1 construct: IR immunoprecipitated from Hep3B hepatocytes; endogenous in cells; host or cells: Hep3B
Assay: In vitro pull down of [35S]-βarrestin2 with IR immunoprecipitated from Hep3B hepatocytes
Format: binding
Protocol: FIGS. 12A-E show insulin stimulated the formation of Receptor/Akt/βarrestin2/Src signal complex. FIG. 12A, Direct interaction of βarrestin2 and IR. In vitro pull down assay was done using in vitro transcribed and translated [^35S]-βarrestin2 and IR immunoprecipitated from Hep3B hepatocytes. […] Hep3B hepatocytes were treated with or without 100 nM Wortmannin for 30 min, and then stimulated by 100nM insulin for 10 min. Immunoprecipitation by anti-IR or anti-Src followed by immunoblot with specific antibodies as indicated. Representative immunoblot was shown (n=3). FIG. 12E, Densitometry analysis of FIG. 6C. Data are presented as mean ±s.e.m. *P<0.05, **P<0.005, versus control.

- interaction between βarrestin2 and IR in vitro: direct interactions
Substance: βarrestin2: full-length βarrestin2 protein, in vitro transcribed and translated for the pull down assay
